Measurements reported in patent publication US10253019B2, “Tank-binding kinase inhibitor compounds” (Gilead Sciences, Inc., priority 2014, dated 2019).

Chains of the proteins cited; added tags and fusions are not shown. Lines headed by an entry give the natural chain unless they say otherwise; changes in a name come on top.
UniProt Q14164: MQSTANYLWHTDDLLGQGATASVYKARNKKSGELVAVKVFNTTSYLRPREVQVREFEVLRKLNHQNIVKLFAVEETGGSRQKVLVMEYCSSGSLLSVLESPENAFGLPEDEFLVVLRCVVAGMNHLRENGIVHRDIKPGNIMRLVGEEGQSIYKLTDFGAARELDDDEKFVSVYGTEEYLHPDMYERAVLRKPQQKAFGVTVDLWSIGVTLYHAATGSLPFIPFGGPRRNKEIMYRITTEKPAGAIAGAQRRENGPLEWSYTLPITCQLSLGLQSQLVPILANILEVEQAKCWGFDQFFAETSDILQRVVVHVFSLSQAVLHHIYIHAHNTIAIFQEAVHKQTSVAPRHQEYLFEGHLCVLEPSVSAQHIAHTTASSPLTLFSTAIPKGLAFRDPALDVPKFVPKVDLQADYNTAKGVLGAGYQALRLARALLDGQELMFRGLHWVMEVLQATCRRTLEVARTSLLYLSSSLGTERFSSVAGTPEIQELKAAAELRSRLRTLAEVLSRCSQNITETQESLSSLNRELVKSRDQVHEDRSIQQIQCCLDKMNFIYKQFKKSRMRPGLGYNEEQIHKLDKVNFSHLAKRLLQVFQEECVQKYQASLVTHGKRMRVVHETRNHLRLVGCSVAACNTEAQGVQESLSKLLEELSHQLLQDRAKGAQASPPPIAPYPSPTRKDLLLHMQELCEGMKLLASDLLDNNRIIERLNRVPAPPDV
UniProt O60674: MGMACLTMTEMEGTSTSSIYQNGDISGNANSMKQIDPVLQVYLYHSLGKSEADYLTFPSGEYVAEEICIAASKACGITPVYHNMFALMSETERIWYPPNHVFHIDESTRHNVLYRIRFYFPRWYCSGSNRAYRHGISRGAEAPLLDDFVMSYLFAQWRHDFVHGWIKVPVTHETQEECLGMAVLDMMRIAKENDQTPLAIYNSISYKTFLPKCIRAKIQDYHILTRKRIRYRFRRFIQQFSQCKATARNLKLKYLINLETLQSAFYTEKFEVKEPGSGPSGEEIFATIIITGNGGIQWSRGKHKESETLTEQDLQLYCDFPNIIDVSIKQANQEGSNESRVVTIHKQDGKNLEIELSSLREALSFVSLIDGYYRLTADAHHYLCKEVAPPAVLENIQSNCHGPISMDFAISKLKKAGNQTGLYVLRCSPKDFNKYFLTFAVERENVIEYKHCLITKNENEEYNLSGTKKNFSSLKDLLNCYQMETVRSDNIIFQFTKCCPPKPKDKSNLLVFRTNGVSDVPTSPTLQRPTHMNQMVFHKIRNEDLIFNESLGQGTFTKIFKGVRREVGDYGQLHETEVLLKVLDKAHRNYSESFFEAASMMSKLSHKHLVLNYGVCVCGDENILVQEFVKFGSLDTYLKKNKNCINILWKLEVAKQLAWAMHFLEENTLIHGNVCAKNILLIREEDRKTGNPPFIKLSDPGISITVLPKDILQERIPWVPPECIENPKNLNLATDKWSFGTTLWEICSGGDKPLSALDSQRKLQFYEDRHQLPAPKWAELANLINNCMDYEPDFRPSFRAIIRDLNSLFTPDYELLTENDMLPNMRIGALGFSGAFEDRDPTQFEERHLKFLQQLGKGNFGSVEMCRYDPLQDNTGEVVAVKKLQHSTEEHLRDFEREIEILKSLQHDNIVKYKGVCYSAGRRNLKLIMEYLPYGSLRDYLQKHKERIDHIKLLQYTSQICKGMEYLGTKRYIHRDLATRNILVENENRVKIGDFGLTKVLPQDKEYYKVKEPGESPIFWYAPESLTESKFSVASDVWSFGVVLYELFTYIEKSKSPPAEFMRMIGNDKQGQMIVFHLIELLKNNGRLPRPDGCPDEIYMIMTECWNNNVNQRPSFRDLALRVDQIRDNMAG
UniProt Q9UHD2: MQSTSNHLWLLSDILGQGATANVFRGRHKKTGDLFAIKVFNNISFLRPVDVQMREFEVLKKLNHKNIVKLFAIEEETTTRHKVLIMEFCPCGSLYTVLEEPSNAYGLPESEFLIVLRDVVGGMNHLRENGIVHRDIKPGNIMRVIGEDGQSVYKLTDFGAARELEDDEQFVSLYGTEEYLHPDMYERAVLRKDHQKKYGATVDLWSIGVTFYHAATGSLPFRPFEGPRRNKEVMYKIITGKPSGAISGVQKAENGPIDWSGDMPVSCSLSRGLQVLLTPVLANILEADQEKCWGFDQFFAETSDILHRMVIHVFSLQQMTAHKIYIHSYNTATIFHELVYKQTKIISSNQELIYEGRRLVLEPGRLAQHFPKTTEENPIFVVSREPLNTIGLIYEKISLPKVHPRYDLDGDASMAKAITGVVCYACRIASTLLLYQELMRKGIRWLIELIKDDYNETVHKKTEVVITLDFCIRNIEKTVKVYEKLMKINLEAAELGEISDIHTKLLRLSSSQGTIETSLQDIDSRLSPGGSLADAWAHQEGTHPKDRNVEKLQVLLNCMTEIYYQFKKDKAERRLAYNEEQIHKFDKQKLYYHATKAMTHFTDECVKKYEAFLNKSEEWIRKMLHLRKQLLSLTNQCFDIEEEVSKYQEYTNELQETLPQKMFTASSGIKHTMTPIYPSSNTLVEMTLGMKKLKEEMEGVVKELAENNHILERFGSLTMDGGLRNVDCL

Legend:
IKKε = IKKε (Homo sapiens (Human), UniProt Q14164); test: IKKε TR-FRET enzymatic assay; format: biochemical; conditions: read-out: IKKe IC50
hJAK2 = hJAK2 (Homo sapiens (Human), UniProt O60674); test: hJAK2 LANCE TR-FRET enzymatic assay; format: biochemical; conditions: read-out: JAK2 IC50
TBK1 = TBK1 (Homo sapiens (Human), UniProt Q9UHD2); test: TBK1 TR-FRET enzymatic assay; conditions: read-out: TBK1 IC50

Row | Substance | IC50 (IKKε) | IC50 (hJAK2) | IC50 (TBK1)
1 | 2-(((3R,4S)-4-fluoro-1-(2-hydroxyacetyl)pyrrolidin-3-yl)oxy)-5-(4-((4-(4-(oxetan-3-yl)piperazin-1-yl)phenyl)amino)-1,3,5-triazin-2-yl)benzonitrile [Example 101] | 26 nM | 638 nM | 
2 | 2-(((3R,4S)-3-fluoro-1-((S)-pyrrolidine-2-carbonyl)piperidin-4-yl)oxy)-5-(4-((4-(4-(oxetan-3-yl)piperazin-1-yl)phenyl)amino)-1,3,5-triazin-2-yl)benzonitrile [Example 133] |  |  | 483 nM
